Results as given in publication PMC8958505, “Discovery of Potential Neuroprotective Agents against Paclitaxel-Induced Peripheral Neuropathy” (Journal of Medicinal Chemistry, 2022).
Where a name gives a salt, the structure may show the parent alone.

Tests used:
[1] = test system: paclitaxel-induced neuropathy in C57BL/6 mice; assay: Tail immersion test (thermal sensation) in paclitaxel-induced neuropathy; assay type: in vivo, mouse
Procedure: Three behavioral models of paclitaxel-induced neuropathy were used to verify the neuroprotective effect of CN016. Namely, thermal and mechanical nociceptive reactions described below were evaluated by tail immersion and von Frey filament tests, respectively, and motor coordination was assessed with the rotarod performance test (Supporting Information, Figure S1A,B). To mimic the clinical therapeutic regimen, CN016 (5, 10 and 20 mg/kg) was administrated to 7-week-old female C57BL/6 mice by intraperitoneal injection (IP) 1 h prior to each injection of paclitaxel (4.5 mg/kg) on four alternate days (days 1, 3, 5, and 7). Each test’s basal level was recorded before treatment, and additional sessions of behavior tests were performed weekly for five weeks (Figure 4A).
The baseline of every neurological behavior test was measured in 6-week-old C57BL/6J female mice prior to treatment. […] Mechanical hyperalgesia was evaluated by using von Frey filament (#2390, IITC Inc., USA), thermal sensitivity was determined by the tail immersion assay (water temperature: 48–49 °C), and motor coordination was assessed by rotarod (#7750, Ugo Basile Biological Research Apparatus, Italy). After the first drug implantation, the body weight was recorded every 6 days throughout the entire experiment.

[2] = test system: proinflammatory cytokines and chemokines; assay: Systemic mouse cytokine and chemokine detection; assay type: in vivo; conditions: pretreatment; day 14 after first paclitaxel injection
Procedure: Samples were obtained from C57BL/6J female mice before and 14 days after the first course of treatment. The blood samples were obtained from the submandibular vein and then centrifuged at 3000 rpm for 15 min at 4 °C to yield plasma. Mouse cytokines/chemokines were quantified using Magnetic Bead 32-Multiplex Panel (Millipore, MCYTMAG-70K-PX32). Statistical significance was analyzed using two-way ANOVA, with p < 0.05 considered significant.

[3] = target: T1, CYP 1A2 (Homo sapiens, UniProt P05177); assay: Cytochrome P450 testing, CYP 1A2; assay type: in vitro ADME; conditions: phenacetin O-deethylation; read-out: Concentration of inhibition (IC50), CYP 1A2
T1 construct: host or cells: baculovirus-infected insect cells (supersomes)
From the text: (§1) Cytochrome P450 testing of CN016
(§2) The effects of CN016 on the activity of six specific human liver cytochrome P450 isozymes (CYP 1A2, 2C9, 2C19, 2D6, 2E1, 3A4) expressed in baculovirus-infected insect cell supersomes were studied. The reactions used to measure the activity of these enzymes were phenacetin O-deethylation (1A2), diclofenac 4-hydroxylation (2C9), mephenytoin 4-hydroxylation (2C19), dextromethorphan O-demethylation (2D6), chlorzoxazone 6-hydroxylation (2E1) and testosterone 6-hydroxylation (3A4).
(§3) Furafylline, sulfaphenazole, tranylcypromine, quinidine, diethyldithiocarbamate and azamulin were used as reference inhibitors of these enzymes. Incubation mixtures containing no CN016 or reference inhibitors were used as controls. The tested result […]
(§4) Table S4. Result of Cytochrome P450 testing of CN016

[4] = target: T2, CYP 2C9 (Homo sapiens, UniProt P11712); assay: Cytochrome P450 testing, CYP 2C9; assay type: in vitro ADME; conditions: diclofenac 4-hydroxylation; read-out: Concentration of inhibition (IC50), CYP 2C9
T2 construct: host or cells: baculovirus-infected insect cells (supersomes)
From the text: as §1, §2, §3, §4

[5] = target: T3, CYP 2D6 (Homo sapiens, UniProt P10635); assay: Cytochrome P450 testing, CYP 2D6; assay type: in vitro ADME; conditions: dextromethorphan O-demethylation; read-out: Concentration of inhibition (IC50), CYP 2D6
T3 construct: host or cells: baculovirus-infected insect cells (supersomes)
From the text: as §1, §2, §3, §4

[6] = target: T4, CYP 2E1 (Homo sapiens, UniProt P05181); assay: Cytochrome P450 testing, CYP 2E1; assay type: in vitro ADME; conditions: chlorzoxazone 6-hydroxylation; read-out: Concentration of inhibition (IC50), CYP 2E1
T4 construct: host or cells: baculovirus-infected insect cells (supersomes)
From the text: as §1, §2, §3, §4

[7] = target: Adenosine A3 (Homo sapiens, UniProt P0DMS8); assay: LeadProfilingScreen: Adenosine A3; assay type: binding
[8] = target: Adrenergic α1A (Homo sapiens, UniProt P35348); assay: LeadProfilingScreen: Adrenergic α1A; assay type: binding
[9] = target: Androgen (Testosterone) (Homo sapiens, UniProt P10275); assay: LeadProfilingScreen: Androgen (Testosterone); assay type: binding
[10] = target: Cannabinoid CB1 (Homo sapiens, UniProt P21554); assay: LeadProfilingScreen: Cannabinoid CB1; assay type: binding
[11] = target: Dopamine D4.4 (Homo sapiens, UniProt P21917); assay: LeadProfilingScreen: Dopamine D4.4; assay type: binding
[12] = target: Epidermal Growth Factor (EGF) (Homo sapiens, UniProt P00533); assay: LeadProfilingScreen: Epidermal Growth Factor (EGF); assay type: binding
[13] = test system: GABAA, Flunitrazepam, Central; assay: LeadProfilingScreen: GABAA, Flunitrazepam, Central; assay type: binding, rat; conditions: 10 μM
[14] = target: Histamine H1 (Homo sapiens, UniProt P35367); assay: LeadProfilingScreen: Histamine H1; assay type: binding
[15] = target: Histamine H2 (Homo sapiens, UniProt P25021); assay: LeadProfilingScreen: Histamine H2; assay type: binding
[16] = target: Interleukin IL-1 R1 (Homo sapiens, UniProt P14778); assay: LeadProfilingScreen: Interleukin IL-1 R1; assay type: binding
[17] = target: Melatonin MT1 (Homo sapiens, UniProt P48039); assay: LeadProfilingScreen: Melatonin MT1; assay type: binding
[18] = target: Muscarinic M3 (Homo sapiens, UniProt P20309); assay: LeadProfilingScreen: Muscarinic M3; assay type: binding
[19] = target: Neuropeptide Y Y2 (Homo sapiens, UniProt P49146); assay: LeadProfilingScreen: Neuropeptide Y Y2; assay type: binding
[20] = target: Prostanoid EP4 (Homo sapiens, UniProt P35408); assay: LeadProfilingScreen: Prostanoid EP4; assay type: binding
[21] = test system: Thyroid Hormone; assay: LeadProfilingScreen: Thyroid Hormone; assay type: binding, rat; conditions: 10 μM
[22] = target: Transporter, GABA (Rattus norvegicus, UniProt P23978); assay: LeadProfilingScreen: Transporter, GABA; assay type: binding
[23] = target: Transporter, Serotonin (5-Hydroxytryptamine) (SERT) (Homo sapiens, UniProt P31645); assay: LeadProfilingScreen: Transporter, Serotonin (SERT); assay type: binding

**Q.** What does the source list for `O=P(O)(O)CCN1CCC(Nc2cc(N3CCOCC3)nc(NCc3cn(CCCO)nn3)n2)CC1` [CN016, {2-[4-(2-{[1-(3-Hydroxy-propyl)-1H-[1,2,3]triazol-4-ylmethyl]-amino}-6-morpholin-4-yl-pyrimidin-4-ylamino)-piperidin-1-yl]-ethyl}-phosphonic Acid Hydrobromide Salt]?
**A.** alleviation of thermal insensitivity (tail immersion) ([1]; CN016 5 mg/kg IP 1 h prior to paclitaxel 4.5 mg/kg): only moderately alleviated; alleviation of paclitaxel-induced thermhypesthesia (tail immersion) ([1]; CN016 10 or 20 mg/kg IP 1 h prior to paclitaxel 4.5 mg/kg, days 1, 3, 5, 7): able to alleviate; proinflammatory cytokines and chemokines in plasma [2]: significant decrease; IC50 [3]: > 100 µM; IC50 [4]: > 100 µM; IC50 [5]: > 100 µM; IC50 [6]: > 100 µM; inhibition at 10 µM [7]: 0%; inhibition at 10 µM [8]: -9%; inhibition at 10 µM [9]: 6%; inhibition at 10 µM [10]: -5%; inhibition at 10 µM [11]: 12%; inhibition at 10 µM [12]: -1%; Inhibition (%), GABAA, Flunitrazepam, Central [13]: -5%; inhibition at 10 µM [14]: 19%; inhibition at 10 µM [15]: 0%; inhibition at 10 µM [16]: -3%; inhibition at 10 µM [17]: 6%; inhibition at 10 µM [18]: 0%; inhibition at 10 µM [19]: 10%; inhibition at 10 µM [20]: 4%; Inhibition (%), Thyroid Hormone [21]: 7%; inhibition at 10 µM [22]: 2%; inhibition at 10 µM [23]: -4%
